Experimental findings from ChEMBL document CHEMBL1128739, “Structure-activity relationships in the 8-amino-6,7,8,9-tetrahydro-3H-benz[e]indole ring system. 2. Effects of 8-amino nitrogen substitution on serotonin receptor binding and pharmacology” (J Med Chem, 1995) are described below.

Amino acid sequences for entries named in this document (tags omitted).
UniProt P61169, whole entry: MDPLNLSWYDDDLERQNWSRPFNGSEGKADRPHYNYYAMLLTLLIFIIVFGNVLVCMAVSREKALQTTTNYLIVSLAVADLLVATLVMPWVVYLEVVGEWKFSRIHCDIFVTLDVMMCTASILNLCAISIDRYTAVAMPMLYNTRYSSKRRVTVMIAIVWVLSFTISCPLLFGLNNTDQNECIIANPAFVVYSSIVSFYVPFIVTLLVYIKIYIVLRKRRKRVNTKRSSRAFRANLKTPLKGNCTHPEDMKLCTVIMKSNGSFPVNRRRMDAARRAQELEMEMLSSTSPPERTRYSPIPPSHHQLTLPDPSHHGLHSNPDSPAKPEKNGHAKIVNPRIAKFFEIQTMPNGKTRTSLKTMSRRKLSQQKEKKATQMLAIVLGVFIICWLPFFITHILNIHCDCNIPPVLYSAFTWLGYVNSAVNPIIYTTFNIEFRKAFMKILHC

The assay deals with D(2) dopamine receptor (Rattus norvegicus, UniProt P61169). The assay can be described thus: Binding affinity rat Dopamine receptor D2 expressed in CHO-K1 cells by [3H]U-86170 displacement. The format is cell-based.

As for `CN(C)C1CCc2ccc3[nH]ccc3c2C1` (configuration not stated), the affinity, expressed as Ki, was 24 nM. The figure for `CN(C)[C@H]1CCc2ccc3[nH]ccc3c2C1` is 377 nM.

For orientation: Ki means a dissociation constant, usually derived from enzyme kinetics or from competition with a known ligand. A low value points to higher affinity.
